Amino acid sequences for entries named in this document (tags omitted).
UniProt P10275, whole entry: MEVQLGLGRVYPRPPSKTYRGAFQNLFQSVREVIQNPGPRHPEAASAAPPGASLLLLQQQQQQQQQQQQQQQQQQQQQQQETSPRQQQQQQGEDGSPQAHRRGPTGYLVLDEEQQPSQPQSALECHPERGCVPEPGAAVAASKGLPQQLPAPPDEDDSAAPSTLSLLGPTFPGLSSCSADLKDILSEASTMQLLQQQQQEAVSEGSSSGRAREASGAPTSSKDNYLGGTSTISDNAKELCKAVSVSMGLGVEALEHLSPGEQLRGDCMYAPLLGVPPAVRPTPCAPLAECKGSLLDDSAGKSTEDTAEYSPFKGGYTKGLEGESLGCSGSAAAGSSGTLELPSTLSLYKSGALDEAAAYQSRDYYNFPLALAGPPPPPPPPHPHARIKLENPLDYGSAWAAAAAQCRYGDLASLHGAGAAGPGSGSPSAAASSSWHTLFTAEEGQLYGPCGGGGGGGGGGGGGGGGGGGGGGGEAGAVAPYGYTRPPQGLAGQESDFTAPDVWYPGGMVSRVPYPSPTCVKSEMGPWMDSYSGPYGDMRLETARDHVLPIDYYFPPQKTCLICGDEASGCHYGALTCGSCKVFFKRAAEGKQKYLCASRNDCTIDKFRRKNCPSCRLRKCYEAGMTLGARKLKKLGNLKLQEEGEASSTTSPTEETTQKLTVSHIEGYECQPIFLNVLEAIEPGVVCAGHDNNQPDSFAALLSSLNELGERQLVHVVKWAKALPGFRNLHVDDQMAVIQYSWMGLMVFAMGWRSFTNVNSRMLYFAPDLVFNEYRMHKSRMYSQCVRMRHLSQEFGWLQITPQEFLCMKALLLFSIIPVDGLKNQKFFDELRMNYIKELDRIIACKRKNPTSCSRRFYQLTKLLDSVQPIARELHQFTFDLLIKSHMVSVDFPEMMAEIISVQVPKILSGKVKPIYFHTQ

According to patent US11427548B2 (Arvinas Operations, Inc., priority 2015, dated 2022):

Molecular target: Androgen Receptor (Homo sapiens, UniProt P10275)
Assay: Androgen Receptor ELISA assay (PathScan AR ELISA) in VCaP cells: AR degradation, Dmax and DC50
Assay type: cell-based

`Cc1ncoc1-c1ccc([C@H](C)NC(=O)[C@@H]2C[C@@H](O)CN2C(=O)[C@@H](NC(=O)COC[C@H]2CC3(C2)C[C@H](COc2ccc(N4C(=S)N(c5ccc(C#N)c(C(F)(F)F)c5)C(=O)C4(C)C)cc2)C3)C(C)(C)C)cc1` (single isomer, unassigned) was tested, and the “VCaP Dmax (%)” value (Table 34) was “++++ (71% ≤ Dmax)” and the DC50 (read-out: VCaP DC50, Table 34) was < 50 nM.
